The values that follow come from patent US11173144B2, “Adrenergic receptor modulating compounds and methods of using the same” (The Board of Trustees of the Leland Stanford Junior …, priority 2016, dated 2021).

The nature of this series: Microsomal stability assay, human. To be noted: 60 min.

Structures are written as SMILES.

As to `COc1ccccc1OCCNC[C@H](O)COc1ccc(O)cc1` [Compound 43], the “stability in human microsomes” value is recorded as “almost no reduction”.
